# The list shows a part of the results, in another mix than the full data. Some results for these compounds are left out of this collection, so the calls shown say nothing about other tests. Inconclusive results are not listed. The source made the active and inactive calls. The call rests on the fitted dose curve; in most records, active means well fitted inhibition curve with a large enough effect; inconclusive means small, poorly fitted or top-dose-only effect, or effect the other way; inactive means no such curve, though single readings can be large or run the other way.
# By UniProt entry, the sequences of proteins in these tests, tags left out.
# UniProt Q6W5P4, whole entry: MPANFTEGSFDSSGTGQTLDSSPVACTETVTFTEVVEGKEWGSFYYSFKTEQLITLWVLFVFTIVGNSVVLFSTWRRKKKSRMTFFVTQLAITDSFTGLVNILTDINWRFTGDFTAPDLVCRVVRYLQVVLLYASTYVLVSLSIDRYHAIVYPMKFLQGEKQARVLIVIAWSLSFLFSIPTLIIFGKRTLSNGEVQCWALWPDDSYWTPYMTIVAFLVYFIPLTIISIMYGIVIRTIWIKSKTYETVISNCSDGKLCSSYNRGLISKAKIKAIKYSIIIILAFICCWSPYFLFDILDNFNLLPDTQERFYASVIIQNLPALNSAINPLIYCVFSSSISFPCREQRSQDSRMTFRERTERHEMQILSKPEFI
# Molecular target: Neuropeptide S receptor (Homo sapiens) (UniProt Q6W5P4)
# Assay: qHTS Assay for Antagonists of the Neuropeptide S Receptor: cAMP Signal Transduction; further: nearly all actives have a fitted effect of over 50% in size
# Details: CHO-NPSR cells, cAMP TR-FRET, antagonist mode; at 38.3 µM (top of the series) unless noted
# On the % scale 0 is the no-effect control and ±100 the full control effect.
row,Compound,"activity change, negative = inhibition"
1,Cc1ccccc1C(=O)NCC1(N2CCCCC2)CCCCC1,inactive: -4.87%
2,CN(C)C1CCCC1OC(=O)C(O)(c1ccccc1)c1ccccc1 (stereo unspecified),inactive: 8.22%
3,CCN1CCCC(OC(=O)C2(O)c3ccccc3C=Cc3ccccc32)C1 (stereo unspecified),inactive: 9.87%
4,C=CCN1CCN(CCOC(=O)C(O)(c2ccccc2)c2ccccc2)CC1,inactive: 0.525%
5,O=C(NCC1(N2CCCCC2)CCCCC1)c1cc([N+](=O)[O-])ccc1Cl,inactive: 2.55%
6,CCN(CC)CC(C)C(C)OC(=O)C(O)(c1ccccc1)c1ccccc1 (stereo unspecified),inactive: 6.99%
7,CC(C)N1C(=O)CC2(CCN(CCOC(=O)C(O)(c3ccccc3)c3ccccc3)CC2)C1=O,inactive: -2.6% [at 46.1 µM]
8,O=C(OC1CN2CCC1CC2)C(CO)(c1ccccc1)c1ccccc1 (stereo unspecified),inactive: -6.54% [at 46.1 µM]
9,CN(C)c1cccc(C(=O)NCC2(N(C)C)CCCCC2)c1,inactive: -16.1% [at 46.1 µM]
10,COc1ccc(Br)c(C(=O)NCC2(N3CCCCC3)CCCCC2)c1,inactive: -2.78% [at 7.67 µM]
11,COc1cccc(C(=O)NCC2(N3CCCCC3)CCCCC2)c1,inactive: -3.37%
